From PMC7002685, “Inhibition of vascular calcification by inositol phosphates derivatized with ethylene glycol oligomers” (Nature Communications, 2020)

Tested on: transformation of CPP1 to CPP2 in pooled human serum
Assay: In vitro serum calcification propensity (T50) screening assay
Assay type: biochemical
Design: key to T50: T50 in minutes (time to 50% CPP phase transition)
[1] = concentration 3 μM, one value per experiment

O=P1(O)OP(=O)(O)O[C@H]2[C@@H](O1)[C@@H]1OP(=O)(O)OP(=O)(O)O[C@H]1[C@@H]1OP(=O)(O)OP(=O)(O)O[C@@H]21 (racemic) [ITPP, myo-inositol trispyrophosphate] showed a T50 (concentration 50 μM, one value per experiment) of 340.55.

For NCCCC(O)(P(=O)(O)O)P(=O)(O)O [Alendronate, alendronate], the “concentration upon which a T50 of 350 min is reached (c350), single experiment” value (one value per experiment (lab journal reference E05-E40)) was 11.4 µM.

CC(O)(P(=O)(O)O)P(=O)(O)O [Etidronate, etidronate] was tested, and the T50 (concentration 10 μM, one value per experiment) was 341.133.

Work on COCCOCCOCCOCCOCCOCCOCCOCCOCCOCCOCCOCCO[C@@H]1[C@@H](OP(=O)(O)O)[C@H](OP(=O)(O)O)[C@@H](OP(=O)(O)O)[C@@H](OP(=O)(O)O)[C@H]1OP(=O)(O)O (racemic) [OEG12-IP5, (±)-6-O-(methoxy-dodecaethyleneglycol)-myo-inositol-1,2,3,4,5-pentakis(phosphate)] yielded a T50 (concentration 1.6 μM, one value per experiment) of 231.55.

O[C@H]1[C@H](O)[C@@H](O)[C@H](O)[C@@H](O)[C@H]1O [myo-Inositol, myo-inositol] was tested, and the T50 (3 µM, individual experiments, Fig. 2a) was 283.95 min and the T50 [1] was 283.95.

With COCCOCCOCCOCCOCCOCCOCCOCCOCCOCCOCCO[C@@H]1[C@@H](OS(=O)(=O)O)[C@H](OP(=O)(O)O)[C@@H](OS(=O)(=O)O)[C@@H](OP(=O)(O)O)[C@H]1OS(=O)(=O)O (racemic) [OEG11-IP2S3, (±)-4-O-(methoxy-undecaethyleneglycol)-1,3,5-O-tris(sulfato)-myo-inositol-2,6-O-bis(phosphate)] the T50 (concentration 1 μM, one value per experiment) was 244.7 and the T50 [1] was 232.433.

Compound O=P(O)(O)O[C@@H]1[C@H](OP(=O)(O)O)[C@H](OP(=O)(O)O)[C@@H](O)[C@H](OP(=O)(O)O)[C@H]1OP(=O)(O)O [IP5, myo-Inositol-1,2,3,5,6-pentakisphosphate] has a T50 [1] of 231.7.
